Assay results as given in PubChem BioAssay AID1224817 (Yan Lab, Georgia Cancer Center, Augusta University, 2016).
The list shows a part of the results, in another mix than the full data. Activity calls are given as the source filed them.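 How the source made its calls: active means log2 luciferase ratio at or below -0.5849, meaning signal at two thirds of solvent-only control or lower; inactive means the rest.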

Assay: eIF4E expression suppression, luciferase knock-in reporter – cell-based, HT1080, primary screen (AID 1224817);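 further: luciferase reports endogenous eIF4E expression since it is co-expressed from the native EIF4E locus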
Conditions: HT1080 EIF4E-luc2 knock-in reporter, 16 h, at 2.5 µM, hits give low values
With `NC1CCCCC1.NP(=O)(O)N(CCCl)CCCl` the log2 luciferase activity ratio was inactive: -0.0196.
